# Screening results (PubChem BioAssay)
# Rows were chosen to be rich in hits. Some 13% of all compounds tested hit in one or more screens of this group.
# G9a inh = blocks human histone lysine methyltransferase G9a; Q96KQ7; G9a H3K9 monomethylation, AlphaScreen, 2 h; Potency, µM (highest dose often 102 µM), most hits filed as inhibitors; 8.8% of 350,000 active; AID 504332; note: nearly all actives have a fitted effect of over 75% in size
#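 Chemiluminescent proximity detection of H3K9 monomethylation, read after 10 min bead incubation in the dark. Reaction: 20 nM G9a, 500 nM biotin-H3K9 peptide, 20 uM SAM cofactor, 2 h, room temperature, following 15 min enzyme-compound preincubation.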
# miR-21 reporter = miR-21 reporter, rising signal; Potency, µM (doses to about 38.3 µM); HeLa miR-21 FLuc reporter, luciferase, 48 h; 340,000 tested, under 10 active; active = well fitted rising curve with a large enough effect; inconclusive = small, poorly fitted or top-dose-only effect; inactive = no such curve, though single readings can be large or run the other way;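 further: miR-21 action dims this reporter so a rising signal means less miR-21 action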
#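 Compounds were titrated across several concentrations (up to approximately 40 uM) and incubated 48 hours with HeLa miR-21-FLuc reporter cells (miR-21 target sequence downstream of FLuc, endogenous miR-21). Readout was firefly luciferase luminescence after lytic detection reagent.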
# ALDH1A1 inh = ALDH1A1 (human) enzyme inhibition; Potency, µM (series often up to 75.3 µM), most hits filed as inhibitors; 7.3% of 220,000 active; P00352; Purified ALDH1A1, NADH fluorescence, propionaldehyde substrate; active = well fitted inhibition curve with a large enough effect, not every such curve was filed as active; inconclusive = small, poorly fitted or top-dose-only effect, or another doubt; inactive = no such curve, though single readings can be large or run the other way
# Lamin A splicing = modulators of lamin A splicing. HeLa LMNA splicing GFP/RFP minigene ratio, 48 h. Potency, µM (series often up to 46.1 µM), hits mostly inhibitors. 0.01% of 200,000 active; active = well fitted inhibition curve with a large enough effect in the signal ratio, with a control signal flat, not every such curve was filed as active; inconclusive = small, poorly fitted or top-dose-only effect, or effect the other way, or a change in a side signal; the % refers to the signal ratio
#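 Read-out is the ratio of GFP to DsRed2 object intensity, acquired by 488 nm laser-scanning cytometry on HeLa lamin A-EGFP minigene reporter cells. Compound incubation 48 hrs at 37 °C in Opti-MEM with 2% FBS; DMSO 0.5% final.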
# Sfp PPTase inh = blocks B. subtilis Sfp PPTase activity; Q9F4F7; Biochemical Sfp PPTase activity, qHTS; Potency, µM, hits mostly inhibitors; 3.5% of 310,000 active; AID 1490;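 note: the enzyme is Sfp with the accession as filed and its product quenches rhodamine fluorescence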
#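 Compounds were incubated with enzyme (final 15 nM) for 15 min at room temperature before substrate addition started the reaction. Fluorescence at 525 nm excitation, 598 nm emission was recorded immediately and after 30 minutes.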
# JMJD2E inh = blocks human JMJD2E demethylase activity; B2RXH2; Potency, µM (highest dose often 57.1 µM), actives largely listed as inhibitors; AID 2147; 1.6% of 230,000 active; JMJD2E catalytic domain, FDH-coupled NADH fluorescence (FDH is formaldehyde dehydrogenase); note: nearly all actives have a fitted effect of over 50% in size
# A number is an active result; 0 = inactive; ? = inconclusive; - = no result; [ ] = remark or other dose. Unless noted, calls come from the whole dose curve; as a rule, active = well fitted curve in the direction sought with a large enough effect; inconclusive = small, poorly fitted or top-dose-only effect, or another doubt; inactive = no such curve, though single readings can be large; an effect the other way counts as inactive or inconclusive.
SMILES,G9a inh,miR-21 reporter,ALDH1A1 inh,Lamin A splicing,Sfp PPTase inh,JMJD2E inh
CC(C)CN1CCC(=O)N(C(CSc2ccc(Br)cc2)Cc2ccccc2)CC1 (stereo unspecified),-,-,-,-,0,-
O=C(COC(=O)Cc1c(F)cccc1Cl)NC1CCS(=O)(=O)C1 (stereo unspecified),0,-,-,-,-,-
O=C(Nc1cccc(C(=O)N2CCN(c3ccccc3F)CC2)c1)c1nsc2ccccc12,?,0,-,?,-,-
O=C(NC(=S)Nc1ccc(O)cc1)c1ccccc1Cl,?,0,17.8µM,-,0,0
COc1ccc(NC(=S)NC(=O)c2ccccc2Cl)cc1,?,0,12.6µM,-,0,0
Cc1ccc(Cl)cc1NC(=O)C(Cc1ccccc1)NS(=O)(=O)c1cccc2nsnc12 (stereo unspecified),?,0,-,-,-,-
O=[N+]([O-])c1ccccc1CN1CCN(Cc2ccccn2)CC1,3.98µM,0,?,0,50.1µM,?
O=[N+]([O-])c1ccccc1CN1CCN(c2ncccn2)CC1,?,0,-,-,0,-
O=[N+]([O-])c1ccccc1CN1CCN(Cc2c[nH]c3ccccc23)CC1,31.6µM,0,?,?,?,?
CC(=O)Nc1c(C)nn(-c2ccccc2)c1N1CCC(C(=O)Nc2cccc(C(F)(F)F)c2)CC1,0,0,-,?,-,-
CCOC(=O)c1ccc(NC2=CC(c3ccc(F)cc3)N(c3ccc(C(=O)OCC)cc3)C2=O)cc1 (stereo unspecified),0,0,-,-,-,-
CN1C(=O)C2C(c3ccc(N(C)C)cc3)=NN(Cc3ccccc3)C2C1=O (stereo unspecified),3.98µM,0,?,?,0,0
COc1ccc(C2=NN(Cc3ccccc3)C3C(=O)NC(=O)C23)cc1 (stereo unspecified),0,0,0,0,0,0
Cc1cnc(C(=O)OCC(=O)Nc2ccc(OCc3ccccc3)cc2)cn1,0,-,-,-,-,-
CC[C@]1(c2cccc(C)c2)C(=O)N(C(=O)OC)N1C(=O)OC,39.8µM,0,-,-,0,-
COC(=O)N1C(=O)[C@](Cc2ccccc2)(c2ccccc2)N1C(=O)OC,39.8µM,0,-,-,0,-
CC[C@@]1(c2ccccc2C)C(=O)N(C(=O)OC)N1C(=O)OC,-,0,-,-,?,-
COC(=O)N1C(=O)[C@@](Cc2ccccc2)(c2ccccc2)N1C(=O)OC,-,0,-,-,0,-
CC[C@@]1(c2ccccc2)C(=O)N(C(=O)OC)N1C(=O)OC,28.2µM,0,-,-,0,-
CC[C@]1(c2ccccc2)C(=O)N(C(=O)OC)N1C(=O)OC,-,0,-,-,0,-
CCCCN1C(=O)C(=Nc2cccc3cnccc23)c2ccccc21,44.7µM,0,0.631µM,?,0,0
O=C(CN1C(=O)c2cccc3cccc1c23)NCc1cccnc1,0,0,0,0,0,0
CC(=O)c1cccc(NC(=O)N2CCC(CN3CCCCC3)CC2)c1,0,0,-,?,-,-
CC(=O)c1ccc(NC(=O)c2ccc3nc(-c4ccco4)c(-c4ccco4)nc3c2)cc1,1.78µM,0,3.16µM,0,12.6µM,?
O=C(NCc1ccccc1)c1ccc2nc(-c3ccco3)c(-c3ccco3)nc2c1,1.78µM,0,?,0,7.08µM,?
SMILES,G9a inh,miR-21 reporter,ALDH1A1 inh,Lamin A splicing,Sfp PPTase inh,JMJD2E inh
CCc1nc2ccc(C(=O)Nc3ccc(NC(C)=O)cc3)cc2nc1CC,0,0,0,0,0,0
CC(=O)c1ccc(NC(=O)CSc2nnc(-c3ccco3)c(-c3ccco3)n2)cc1,-,0,1.41µM,-,8.91µM,15.8µM
O=C(Nc1ccccc1)c1ccc2nc(-c3ccco3)c(-c3ccco3)nc2c1,?,0,0.178µM,0,20µM,?
O=C(Nc1ccc(N2CCOCC2)cc1)c1ccc2nc(-c3ccco3)c(-c3ccco3)nc2c1,?,0,0,0,0,0
COC(=O)c1ccc(C(NC(=O)OCc2ccccc2)/C(C)=C/[C@@H](C)C(=O)NCCO)cc1 (stereo partly specified),-,-,?,-,0,0
CC(C)(C)C1=C[C@@H](CO)C[C@@H](CO)C1,0[12.7 µM],0,28.2µM,0,0,0
S=c1[nH]c2cc3c(cc2[nH]1)OCCO3,3.55µM,0,-,-,0,0
O=C(CCS(=O)(=O)c1ccccc1)NC1CCCCC1,0,0,-,-,0,-
O=C1CC(c2ccccc2)CC(=O)C1Sc1ccc(Cl)cc1 (stereo unspecified),0,0,?,0,0,0
O=C1CC(c2ccc(Cl)cc2)CC(=O)C1CS(=O)(=O)c1ccccc1 (stereo unspecified),3.98µM,0,7.08µM,-,0,0
O=C1CCCC(=O)C1CS(=O)(=O)c1ccccc1,3.16µM,0,12.6µM,-,20µM,0
COc1ccc(C2CC(=O)C(CS(=O)(=O)c3ccccc3)C(=O)C2)cc1 (stereo unspecified),0,0,7.94µM,-,0,0
CC(C)c1ccc(NC(=O)CCNC(=O)N2CC(=O)Nc3ccccc32)cc1,0,0,-,-,0,-
COc1ccc(/C=C/N(CCc2ccc(OC)c(OC)c2)C(=O)c2ccccn2)cc1,-,-,?,-,0,-
CC(=O)OC1C[C@]2(C)[C@@H](CC(O)C3[C@]4(C)CCC(O)C(C)[C@@H]4CC[C@]32C)/C1=C(/CCC=C(C)C)C(=O)O (stereo partly specified),0[2.33 µM],-,0,-,0,0
Cc1cccc(CS(=O)(=O)CC2Nc3ccc(C(=O)NCc4ccccc4Cl)cc3NC2=O)c1 (stereo unspecified),?,0,-,0,-,-
Cc1ccc(NC(=O)CCNS(=O)(=O)c2cccc3nsnc23)cc1F,0,0,-,-,0,-
COCCNC(=O)CN1C(=O)COc2ccc(S(=O)(=O)N3CCCCCC3)cc21,0,0,-,-,0,-
CCCCC(=O)NC(=S)NNC(=O)CC,7.08µM,0,22.4µM,0,?,?
CCCCC(=O)NC(=S)NNS(=O)(=O)c1ccccc1,?,0,8.91µM,0,?,0
CCCCC(=O)NC(=S)Nc1c(C)cc(Br)cc1C,10µM,0,11.2µM,0,35.5µM,0
CCCOc1ccc(CNC(=O)CCCn2ncn3c(cc4sc(CC)cc43)c2=O)cc1,0,0,-,-,-,-
CCCCC(=O)Nc1ccc(C(=O)NNC(=O)c2ccco2)cc1,0,0,0,0,0,0
CCCC(=O)Nc1ccc(Cl)c(NC(=S)NC(=O)c2ccco2)c1,50.1µM,0,0,0,0,0
O=C(Nc1ccc(Cl)c(NC(=O)c2cccs2)c1)c1ccco1,56.2µM,0,-,-,0,-
CCCCC(=O)Nc1ccc(C(=O)NNC(=S)NC(=O)c2ccco2)cc1,25.1µM,0,?,-,0,0
CCCCC(=O)Nc1ccc(C(=O)NNC(=S)NC(=O)c2cccs2)cc1,0,0,25.1µM,?,0,?
CCCC(=O)Nc1ccc(Cl)c(NC(=O)c2ccco2)c1,0,0,0,0,0,0
O=C(Nc1ccc(NC(=O)c2cccs2)cc1Cl)c1ccco1,0,0,?,-,0,?
Cc1c(Cl)cccc1NC(=O)Nc1ccc2snnc2c1,0,?,-,-,-,-
